# Assay results published in patent US20250223431A1, “AQUEOUS DISPERSION OF BIOCIDE-FREE ORGANIC OPACIFYING PIGMENT PARTICLES” (Rohm and Haas Company, priority 2022, published 2025).
# Test system: standard pool of bacteria, yeasts, and molds
# Assay: Microbial resistance challenge test (three inoculations, streak plating on TSA and PDA agar)
# Conditions: summary in words of the challenge tests
compound,measurement,value
CCC(C)(C)OO,effectiveness as preservative for the aqueous dispersion of opaque polymers,effective as preservatives
